The record followed here is paper PMC3728351, “Allosteric Inhibitors of the NS3 Protease from the Hepatitis C Virus” (PLoS ONE, 2013).

Each structure is given as a SMILES string.

For orientation: CC50 means the concentration at which the toxic effect on the cells reaches its halfway point. Low values mean greater toxicity to the cells, high ones lower toxicity to the cells.

This data set in a line: in vitro. Particulars: human. In kind it is cell-based.

Molecule `OCCN(CCO)c1nc(N2CCCCC2)c2nc(N(CCO)CCO)nc(N3CCCCC3)c2n1` [Compound 2] yielded a CC50 of 80 µM.
